Assay results taken from ChEMBL document CHEMBL6087484, “Discovery of Novel Small-Molecule Inhibitors Disrupting the MTDH-SND1 Protein-Protein Interaction” (J Med Chem, 2025).
The source made the active and inactive calls. The calls are words filed in the database; no cut-off is given here.

Columns and labels:
[1] = tested on: MCF7; settings: Homo sapiens, dose 30.0 mg/kg, route ip, time 14.0 day
[2] = tested on: MCF7; settings: Homo sapiens, dose 10.0 mg/kg, route ip, time 14.0 day
[3] = tested on: MCF7; settings: Homo sapiens, dose 60.0 mg/kg, route ip, time 14.0 day
[4] = in vivo; settings: Sprague-Dawley, rat, po, 20 mg/kg
[5] = tested on: MCF7; experiment: animal or person; settings: Mus musculus, MCF7, 336 h, read-out: TGI
[6] = in vivo; settings: Sprague-Dawley, rat, iv, 1 mg/kg
[7] = in vivo; settings: Sprague-Dawley, rat, po, 20 mg/kg; remark: listed apart in the source
[8] = in vivo; settings: Sprague-Dawley, rat, iv, 1 mg/kg; remark: listed apart in the source
[9] = in vivo; settings: Sprague-Dawley, rat, po, 20 mg/kg; remark: listed apart in the source
[10] = in vivo; settings: Sprague-Dawley, rat, po, 20 mg/kg; remark: listed apart in the source
[11] = tested on: MCF7; experiment: animal or person; settings: Mus musculus, MCF7, 336 h, read-out: TGI; remark: listed apart in the source
[12] = in vivo; settings: Sprague-Dawley, rat, iv, 1 mg/kg; remark: listed apart in the source
[13] = in vivo; settings: Sprague-Dawley, rat, po, 20 mg/kg; remark: listed apart in the source
[14] = tested on: MCF7; experiment: animal or person; settings: Mus musculus, MCF7, 336 h, read-out: TGI; remark: listed apart in the source
[15] = in vivo; settings: Sprague-Dawley, rat, iv, 1 mg/kg; remark: listed apart in the source

SMILES	TGI [1]	TGI [2]	TGI [3]	AUC(0-inf) at 24 h [4] [ng·h/mL]	inhibition in vivo at 30 mg/kg [5] [%]	AUC(0-inf) at 24 h [6] [ng·h/mL]	half-life at 24 h [7] [h]	Cmax at 24 h [8] [ng/mL]	MRT inf at 24 h [9] [h]	Tmax at 24 h [10] [h]	inhibition in vivo at 10 mg/kg [11] [%]	half-life at 24 h [12] [h]	bioavailability at 24 h [13] [%]	inhibition in vivo at 60 mg/kg [14] [%]	MRT inf at 24 h [15] [h]
COc1ccc(Cl)cc1S(=O)(=O)Nc1cccn2ncnc12	inactive	inactive	inactive												
O=S(=O)(Nc1cc(F)cc2cccnc12)c1cccc2cccnc12				28.9	40.5	235	1.68	426	4.07	0.22	28.6	1.59	0.58	50.5	1.1
